Results reported in patent US10682419B2, “Prodrugs of peptide epoxy ketone protease inhibitors” (Onyx Therapeutics, Inc., priority 2012, dated 2020).

Legend:
[1] = biological target: c20s (Homo sapiens, UniProt P20618+P28074); assay: Purified PI, IC50 against c20s; assay type: biochemical; conditions: read-out: Purified PI IC50 Slope (nM) c20s; slope method; * = did not converge
[2] = biological target: i20s (Homo sapiens, UniProt P20618+P28062); assay: Purified PI, IC50 against i20s; assay type: biochemical; conditions: read-out: Purified PI IC50 Slope (nM) i20s; slope method; * = did not converge

## CC(C)C[C@H](NC(=O)[C@H](CCc1ccccc1)NC(=O)CN1CCOCC1)C(=O)N[C@@H](Cc1ccccc1)C(=O)N[C@@H](CC(C)C)C(=O)[C@](C)(O)COS(C)(=O)=O
[1]
  IC50: 73.7 nM
[2]
  IC50: 316 nM
